Assay results published in PubChem BioAssay AID1851 (National Center for Advancing Translational Sciences (NCATS), 2009).
Only a part is listed here, and it is no random draw. Inconclusive results are not listed. The call rests on the fitted dose curve; in most records, active means well fitted curve in the direction sought with a large enough effect; inconclusive means small, poorly fitted or top-dose-only effect, or effect the other way; inactive means no such curve, though single readings can be large or run the other way. Where a structure was tested more than once in an assay, its records may differ in their call.

Sequences of proteins named here, by UniProt entry; tags and fusion partners are left off.
UniProt P10635, whole entry, looked up: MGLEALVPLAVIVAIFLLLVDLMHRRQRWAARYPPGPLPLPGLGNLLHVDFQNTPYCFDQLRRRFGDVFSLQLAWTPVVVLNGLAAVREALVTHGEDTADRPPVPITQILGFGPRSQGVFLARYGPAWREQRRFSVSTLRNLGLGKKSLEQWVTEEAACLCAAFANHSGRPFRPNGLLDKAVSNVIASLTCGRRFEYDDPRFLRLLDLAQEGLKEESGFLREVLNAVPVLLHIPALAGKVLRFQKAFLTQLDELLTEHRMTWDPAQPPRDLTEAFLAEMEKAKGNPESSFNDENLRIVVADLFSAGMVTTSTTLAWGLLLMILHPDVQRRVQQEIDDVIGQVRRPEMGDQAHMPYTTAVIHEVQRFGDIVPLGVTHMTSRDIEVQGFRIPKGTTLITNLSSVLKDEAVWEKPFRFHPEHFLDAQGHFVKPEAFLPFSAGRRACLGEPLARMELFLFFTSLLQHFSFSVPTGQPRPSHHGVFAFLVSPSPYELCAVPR

Target: Cytochrome P450 2D6 (Homo sapiens) (UniProt P10635)
Test: Cytochrome panel assay with activity outcomes
Details: recombinant CYP, pro-luciferin dealkylation, luminescence, p450-cyp2d6; series mostly up to 57.1 µM

**Q.** Which AC50 does the source give for `O=c1[nH]c2ccccc2n1C1CCN(CCCC(c2ccc(F)cc2)c2ccc(F)cc2)CC1` here?
**A.** The AC50 was active: 3.16 µM and inactive.
